Assay: Determination of the half-life (t1/2) of DP IV-catalyzed peptide truncation by MALDI-TOF MS
Procedure: The degradation fate of peptides was measured by monitoring the signal intensity of the pseudomolecular ion peaks of parent peptides and N-terminal shorted peptides versus time when incubated with 40 mU procine DP IV, recombinant human DP IV or serum DP IV activity. […] As control served the preincubation of DP IV with 0.01M Tris-buffer (Sigma-Aldrich, Deisenhofen, Germany). The mass spectrometer employed was a Hewlett-Packard G2025 model with a linear time of flight analyzer; samples (4 μL) were mixed 1:1 v/v with matrix (44 mg diammonium-hydrogen-citrate and 30 mg 2′,6′-dihydroxyacetophenone in 1 ml aqueous solution containing 50% acetonitrile and 0.05% trifluoroacetic acid; Sigma-Aldrich), transferred to a probe tip and immediately evaporated using the Hewlett-Packard G2024A (Hewlett-Packard, Waldbronn, Germany) sample preparation vacuum chamber. 250 single laser-shot spectra were accumulated. […]
The height of the substrate peak was measured and set as 100% at time=0. During the reaction course the sum of substrate and product peak height were set as 100% and the percentage of the remaining substrate peak (also expressed as relative concentration) was determined. Diagrammed relative substrate concentration versus time t1/2 can be calculated based on first order exponential decay reaction course. […]

Structure (SMILES): CC[C@H](C)[C@H](NC(=O)[C@H](CO)NC(=O)[C@H](Cc1ccc(O)cc1)NC(=O)[C@H](CC(=O)O)NC(=O)[C@H](CO)NC(=O)[C@@H](NC(=O)[C@H](Cc1ccccc1)NC(=O)[C@@H](NC(=O)CNC(=O)[C@H](CCC(=O)O)NC(=O)[C@H](C)NC(=O)[C@@H](N)Cc1ccc(O)cc1)[C@@H](C)O)[C@@H](C)CC)C(=O)N[C@@H](C)C(=O)N[C@@H](CCSC)C(=O)N[C@@H](CC(=O)O)C(=O)N[C@@H](CCCCN)C(=O)N[C@H](C(=O)N[C@@H](Cc1c[nH]cn1)C(=O)N[C@@H](CCC(N)=O)C(=O)N[C@@H](CCC(N)=O)C(=O)N[C@@H](CC(=O)O)C(=O)N[C@@H](Cc1ccccc1)C(=O)N[C@H](C(=O)N[C@@H](CC(N)=O)C(=O)N[C@@H](Cc1c[nH]c2ccccc12)C(=O)N[C@@H](CC(C)C)C(=O)N[C@@H](CC(C)C)C(=O)N[C@@H](C)C(=O)N[C@@H](CCC(N)=O)C(=O)N[C@@H](CCCCN)C(=O)O)C(C)C)[C@@H](C)CC [GIP1-30, reference compound]
- half-life: 2.68 min
